{
  "source": "paper PMC5673638",
  "about": "(Frontiers in Microbiology, 2017)",
  "key": {"[1]": {"conditions": "mouse, in vivo"}, "[2]": {"conditions": "mouse, in vivo, iv"}},
  "data": [
    {"substance": "D,L-lysine acetylsalicylate ⋅ glycine [BAY 81-8781]", "values": [
      {"measurement": "Adverse events", "setting": "[1]", "value": "no adverse events were found"}
    ]},
    {"substance": "salicylate", "values": [
      {"measurement": "Terminal half-lives", "setting": "[2]", "value": "short"},
      {"measurement": "t1/2", "setting": "[2]", "value": 31.5, "unit": "min"}
    ]}
  ]
}
